Each structure is given as a SMILES string.

The target of the test is SPD_0090 (Streptococcus pneumoniae, UniProt A0A0H2ZQK8). The experiment in a line: biochemical.

As a reminder, the Kd is the constant that tells how readily two partners part at equilibrium. The low end stands for tighter binding, the high end for weaker binding. In the case of `C=CC1=C(C)C2=Cc3c(C=C)c(C)c4[n]3[Fe]([Cl])[n]3c(c(C)c(CCC(=O)O)c3=CC3=NC(=C4)C(C)=C3CCC(=O)O)=CC1=N2` [hemin], the Kd is 21.7 µM.
